The source of these data is PMC12836348, “Alanine Mutagenesis Identifies Specific Amino Acids of Nemertide Alpha‑1 Activity and Its Binding to Target Receptors” (Journal of Natural Products, 2025).

The chains behind the UniProt entries cited, without tags or fusion partners. Where a name states a change or a piece, a line headed by the entry shows the natural chain unless it says otherwise.
UniProt P63142, whole entry: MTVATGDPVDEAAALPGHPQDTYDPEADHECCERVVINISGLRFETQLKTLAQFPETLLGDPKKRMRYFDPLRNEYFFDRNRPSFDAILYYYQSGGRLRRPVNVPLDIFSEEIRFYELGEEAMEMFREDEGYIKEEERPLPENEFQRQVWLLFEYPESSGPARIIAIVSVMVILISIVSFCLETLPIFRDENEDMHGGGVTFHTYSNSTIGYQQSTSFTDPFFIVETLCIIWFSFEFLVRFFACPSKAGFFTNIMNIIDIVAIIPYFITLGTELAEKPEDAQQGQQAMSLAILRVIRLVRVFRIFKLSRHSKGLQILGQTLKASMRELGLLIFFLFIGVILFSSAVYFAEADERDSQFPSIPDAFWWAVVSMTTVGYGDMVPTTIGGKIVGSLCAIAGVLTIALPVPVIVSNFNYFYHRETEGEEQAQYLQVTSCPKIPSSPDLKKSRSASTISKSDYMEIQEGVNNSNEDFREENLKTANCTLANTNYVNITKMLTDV
UniProt Q12809: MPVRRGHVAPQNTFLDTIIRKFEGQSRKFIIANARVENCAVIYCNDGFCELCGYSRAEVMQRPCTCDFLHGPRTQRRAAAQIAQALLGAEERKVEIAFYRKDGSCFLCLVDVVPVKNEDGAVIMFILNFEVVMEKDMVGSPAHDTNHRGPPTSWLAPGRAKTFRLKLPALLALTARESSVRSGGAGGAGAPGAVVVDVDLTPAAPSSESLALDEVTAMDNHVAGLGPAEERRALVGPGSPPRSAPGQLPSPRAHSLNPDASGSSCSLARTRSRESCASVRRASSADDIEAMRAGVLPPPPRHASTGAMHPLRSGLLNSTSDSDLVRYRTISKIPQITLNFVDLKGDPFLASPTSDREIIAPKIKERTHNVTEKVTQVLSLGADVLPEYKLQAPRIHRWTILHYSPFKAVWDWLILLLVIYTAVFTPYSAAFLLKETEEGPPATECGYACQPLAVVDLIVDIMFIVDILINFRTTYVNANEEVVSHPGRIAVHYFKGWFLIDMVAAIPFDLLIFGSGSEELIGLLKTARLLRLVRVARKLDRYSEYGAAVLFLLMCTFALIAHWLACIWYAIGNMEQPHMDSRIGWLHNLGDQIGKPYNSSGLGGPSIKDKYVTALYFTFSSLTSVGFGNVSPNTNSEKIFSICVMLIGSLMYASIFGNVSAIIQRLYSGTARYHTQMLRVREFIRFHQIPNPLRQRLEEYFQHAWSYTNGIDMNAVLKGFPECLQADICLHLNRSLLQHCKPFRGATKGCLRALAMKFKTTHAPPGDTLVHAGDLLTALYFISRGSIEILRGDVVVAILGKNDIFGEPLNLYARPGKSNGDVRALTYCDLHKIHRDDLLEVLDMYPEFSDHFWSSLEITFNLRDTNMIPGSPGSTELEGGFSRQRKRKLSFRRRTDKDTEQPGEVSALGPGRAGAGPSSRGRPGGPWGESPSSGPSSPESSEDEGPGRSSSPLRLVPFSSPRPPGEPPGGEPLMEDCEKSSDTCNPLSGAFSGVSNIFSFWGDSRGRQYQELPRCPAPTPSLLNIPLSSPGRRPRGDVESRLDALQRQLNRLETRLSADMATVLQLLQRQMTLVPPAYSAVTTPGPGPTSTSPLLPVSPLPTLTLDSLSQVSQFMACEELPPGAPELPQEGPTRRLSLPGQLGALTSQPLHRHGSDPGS

Data set [1] relates to BgNav1. Put plainly: Two-electrode voltage clamp, BgNav1 expressed in Xenopus laevis oocytes. The data set is classed as cell-based, Blattella germanica. The following applies: ex vivo, I30ms/Ipeak, Hill fit, n ≥ 3, highest tested concentration 50 μM.
The target in data set [2] is Kv1.2 (Rattus norvegicus, UniProt P63142). Put plainly: Ion channel panel, Kv1.2. The following applies: S12A at 5 μM; Xenopus oocytes, n ≥ 3. The data set is classed as cell-based. Also noted: key: “+” means tested and produced effect; “–“ means tested but no effect. The text has this: (§1) To assess the concentration–response relationships, data were fitted with the Hill equation: y = 100/[1 + (EC50/[toxin])^ h ], where y is the amplitude of the toxin-induced effect (y = I 30 ms/I peak where I 30 ms is the current value at 30 ms in the presence of toxin and I peak is the peak current amplitude in control conditions), EC50 is the toxin concentration at half-maximal efficacy, [toxin] is the toxin concentration, and h is the Hill coefficient. Potassium and calcium currents were evoked by a 500 ms depolarization to the voltage corresponding to the maximal activation of the channels in control conditions from a holding potential of −90 mV. Elicited currents were sampled at 1 kHz and filtered at 0.5 kHz. […] ASIC1a currents were measured in ND96 solutions at a pH of 7.4 and 4.5, at a holding potential of −70 mV during 400 s, and the data were filtered at 20 Hz. EnaC currents were measured by clamping oocytes at a holding potential of −60 mV and perfusing with low- (1 mM) and high- (96 mM) sodium ND96. Opioid currents were measured by clamping the potential to −70 mV and changing the perfusion solution from ND96 to high-potassium (HK) solution composed of 96 mM KCl, 2 mM NaCl, 1 mM MgCl2, 1.8 mM CaCl2, and 5 mM HEPES, with a final pH of 7.5. […] TRPV1 and TRPA1 currents were continuously monitored in a perfusing ND96 solution, following a protocol at −90 mV for 400 s. […]

For data set [3], the system named is Kv3.1. Put plainly: Ion channel panel, Kv3.1. The data set is classed as cell-based. Also noted: key: “+” means tested and produced effect; “–“ means tested but no effect. Conditions: S12A at 5 μM; Xenopus oocytes, n ≥ 3.
Description: as §1

For data set [4], the system named is Kv7.2/Kv7.3. Put plainly: Ion channel panel, Kv7.2/Kv7.3. Also noted: key: “+” means tested and produced effect; “–“ means tested but no effect. In kind it is cell-based. The following applies: S12A at 5 μM; Xenopus oocytes, n ≥ 3.
Description: as §1

Data set [5] relates to Kv10.1. Put plainly: Ion channel panel, Kv10.1. In kind it is cell-based. Also noted: key: “+” means tested and produced effect; “–“ means tested but no effect. The following applies: S12A at 5 μM; Xenopus oocytes, n ≥ 3.
Description: as §1

The target of data set [6] is Kv11.1 (hERG) (Homo sapiens, UniProt Q12809). Briefly: Ion channel panel, Kv11.1 (hERG). In kind it is cell-based. Also noted: key: “+” means tested and produced effect; “–“ means tested but no effect. Conditions: S12A at 5 μM; Xenopus oocytes, n ≥ 3.
Description: as §1

Data set [7] relates to Cav3.2. Put plainly: Ion channel panel, Cav3.2. Also noted: key: “+” means tested and produced effect; “–“ means tested but no effect. In kind it is cell-based. Conditions: S12A at 5 μM; Xenopus oocytes, n ≥ 3.
Description: as §1

The test system of data set [8] is ENaC. Put plainly: Ion channel panel, ENaC. The data set is classed as cell-based. Also noted: key: “+” means tested and produced effect; “–“ means tested but no effect. Conditions: S12A at 5 μM; −60 mV, low and high sodium ND96, n ≥ 3.
Description: as §1

The subject of data set [9] is TRPA1. Briefly: Ion channel panel, TRPA1. In kind it is cell-based. Also noted: key: “+” means tested and produced effect; “–“ means tested but no effect. The following applies: S12A at 5 μM; −90 mV, 50 μM mustard oil, n ≥ 3.

As to `CC[C@H](C)[C@@H]1NC(=O)[C@@H](NC(=O)CN)CSSC[C@@H]2NC(=O)[C@@H]3CSSC[C@@H](C(=O)N[C@@H](CC(N)=O)C(=O)N4C[C@H](O)C[C@H]4C(=O)N4C[C@H](O)C[C@H]4C(=O)N[C@@H](CC(N)=O)C(=O)N[C@@H](CCC(N)=O)C(=O)O)NC(=O)[C@H](CCCCN)NC(=O)[C@H](Cc4ccccc4)NC(=O)[C@H](CC(N)=O)NC(=O)[C@H](Cc4c[nH]c5ccccc45)NC(=O)CNC(=O)[C@H](CSSC[C@H](NC(=O)[C@H](Cc4ccccc4)NC(=O)[C@H](CO)NC(=O)CNC(=O)[C@H]([C@@H](C)O)NC(=O)[C@H](C)NC1=O)C(=O)N[C@@H]([C@@H](C)O)C(=O)N[C@@H](CC(C)C)C(=O)N[C@@H](C)C(=O)N[C@@H](CCCCN)C(=O)NCC(=O)N3)NC(=O)[C@H](CC(N)=O)NC(=O)[C@H](CCCCN)NC(=O)[C@H]([C@@H](C)O)NC2=O` [Peptide S12A], the EC50 in data set [1] was found to be 281 ± 75 nM. In data set [2], the “effect on Kv1.2” value is listed as “–”. Further, the “effect on Kv3.1” value in data set [3] is given as “–”. Further, the “effect on Kv7.2/Kv7.3” value in data set [4] is given as “–”. Moreover, in data set [5], the “effect on Kv10.1” value is on record as “–”. Besides, in [6], the “effect on Kv11.1 (hERG)” value is listed as “–”. In addition, the “effect on Cav3.2” value in [7] is on record as “–”. Further, the “effect on ENaC” value in data set [8] is on record as “–”. In addition, in data set [9], the “effect on TRPA1” value was “–”.
